Assay results reported in PubChem BioAssay AID504466 (National Center for Advancing Translational Sciences (NCATS), 2011).
This is a selection; strong and weak results do not stand in their true shares. Records with an inconclusive call do not appear. Active and inactive are the calls of the source. The call rests on the fitted dose curve; in most records, active means well fitted activation curve with a large enough effect; inconclusive means small, poorly fitted or top-dose-only effect; inactive means no such curve, though single readings can be large or run the other way.

Assay: qHTS screen for small molecules that induce genotoxicity in human embryonic kidney (HEK293T) cells expressing luciferase-tagged ELG1; further: % of control where 0% means no effect; nearly all actives have a fitted effect of over 60% in size
Details: HEK293T ELG1-luciferase reporter, luminescence, 16 h; at 46 µM (top of the series)
Description: NIH Molecular Libraries Probe Production Network [MLPCN] NIH Chemical Genomics Center [NCGC] MLPCN Grant: 1 R03 MH092164-01 Assay Provider: Kyungjae Myung, NHGRI, NIH Keywords: MLPCN, qHTS, NCGC, genotoxicity, cancer Assay Overview: Cancer cells divide rapidly compared to normal cells in the body. During cell division, cancer cells need to duplicate their genome by DNA replication. The failure of genome duplication leads to cancer cells' death. Therefore, inhibitors of DNA replication could specifically kill cancer cells. Based on this concept, many chemotherapeutic agents were developed and have been used to treat cancer patients. However, there are a limited number of agents available in the clinical setting, and some of those that do exist have low efficacy and severe side effects. […] With this in mind, we developed a quantitative high-throughput ELG1-luciferase reporter gene assay. […]
Assay Protocol Summary: For genotoxicity screening, 2,000 cells in 5 uL/well were dispensed into white, solid-bottom 1536-well plates using a solenoid-based dispenser. […] 5 ul ONE-Glo (Promega) was then added to each plate and following a 30 min incubation at room temperature, luciferase activity was quantified on a ViewLux CCD-based plate reader.

Compound | activity change, positive = activation
CCC(=O)N(c1ccccc1)C1(COC)CCN(CCc2cccs2)CC1 | inactive: -2.06%
CCC(=O)N(c1ccccc1)C1(COC)CCN(CCn2nnn(CC)c2=O)CC1 | inactive: 0.893%
